According to patent US20230381170A1, “METHOD FOR TREATING ALS/FTD THROUGH DEGRADATION OF RNA REPEAT EXPANSION” (University of Florida Research Foundation, Incorporated, priority 2020, published 2023):

Key:
[1] = system: r(G4C2)8 and hnRNP H1 complex; settings: from reference (12); cited from earlier work
[2] = biological target: r(G4C2)8; assay: Biolayer interferometry (BLI) binding; settings: r(G4C2) repeats
Procedure: Biolayer Interferometry (BLI). BLI studies were performed similarly as previously described (12) using an Octet RED96. Briefly, 5′-biotinylated nucleic acids were folded by heating at 95° C. for 4 min in 10 mM sodium phosphate buffer, pH 7, followed by slowly cooling to room temperature. Then, to the folded RNA were added the following components: 1.386 mL 1×DPBS (21-031-CV, Corning), 180 μL freshly prepared 1% (w/v) BSA, 36 μL 1% (v/v) Tween-20, and 18 μL DMSO (1% final concentration) in a final volume of 1.8 mL. The final concentration of RNA was 0.5 μM. Separately, serial dilutions of the compound of interest were prepared in the same buffer.
The resulting curves were analyzed and processed using Octet Data Analysis software version 9.1 by subtracting the response of the sensors recorded upon incubation with solutions containing compound and no RNA (parallel reference). The data were then fitted assuming reversible binding using the entire time interval for association and dissociation using either 1:1 or the 2:1 heterogeneous binding curve fitting model. The reported Kd,n, kon,n and koff,n values represent the average of two independent experiments.

Kd [2]: 0.3 ± 0.03 µM
SMILES: COc1ccc2[nH]c3c(C)c4ccncc4c(C)c3c2c1 [Compound 1]
IC50 [1]: ~19 µM
